Reference: ChEMBL document CHEMBL2034932, “2-Anilino-4-(benzimidazol-2-yl)pyrimidines--a multikinase inhibitor scaffold with antiproliferative activity toward cancer cell lines” (Eur J Med Chem, 2012)

Chains of the proteins cited; added tags and fusions are not shown. Lines headed by an entry give the natural chain unless they say otherwise; changes in a name come on top.
UniProt P53350, whole entry: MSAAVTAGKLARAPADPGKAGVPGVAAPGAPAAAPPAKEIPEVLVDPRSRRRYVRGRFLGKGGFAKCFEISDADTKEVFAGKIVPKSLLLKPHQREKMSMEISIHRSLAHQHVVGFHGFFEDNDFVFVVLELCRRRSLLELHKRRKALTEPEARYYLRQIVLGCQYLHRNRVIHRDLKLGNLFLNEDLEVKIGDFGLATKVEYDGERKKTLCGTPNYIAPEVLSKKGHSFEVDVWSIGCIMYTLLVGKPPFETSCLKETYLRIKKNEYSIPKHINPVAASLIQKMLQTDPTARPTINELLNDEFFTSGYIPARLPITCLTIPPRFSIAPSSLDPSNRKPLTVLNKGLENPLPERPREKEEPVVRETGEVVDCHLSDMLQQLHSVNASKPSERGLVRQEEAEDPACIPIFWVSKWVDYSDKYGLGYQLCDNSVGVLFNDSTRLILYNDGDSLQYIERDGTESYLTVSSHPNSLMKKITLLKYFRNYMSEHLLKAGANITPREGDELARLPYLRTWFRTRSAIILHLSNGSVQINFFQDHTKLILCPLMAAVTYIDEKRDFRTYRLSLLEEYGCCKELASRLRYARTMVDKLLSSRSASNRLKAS
UniProt P31749: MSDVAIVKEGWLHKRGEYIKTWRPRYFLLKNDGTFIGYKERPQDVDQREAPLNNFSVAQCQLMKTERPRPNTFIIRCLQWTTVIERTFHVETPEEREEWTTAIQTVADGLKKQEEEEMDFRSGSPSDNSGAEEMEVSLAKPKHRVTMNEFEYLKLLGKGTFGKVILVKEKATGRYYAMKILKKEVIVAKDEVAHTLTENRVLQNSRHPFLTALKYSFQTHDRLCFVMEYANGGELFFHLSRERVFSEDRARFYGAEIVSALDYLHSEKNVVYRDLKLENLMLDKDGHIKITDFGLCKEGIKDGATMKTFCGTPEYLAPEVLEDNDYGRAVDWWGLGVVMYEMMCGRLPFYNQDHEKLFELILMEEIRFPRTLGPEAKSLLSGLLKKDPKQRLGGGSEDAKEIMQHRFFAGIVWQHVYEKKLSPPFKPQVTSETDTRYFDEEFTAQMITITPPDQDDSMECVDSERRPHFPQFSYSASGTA

Assays:
[1] = molecular target: Serine/threonine-protein kinase PLK1 (Homo sapiens, UniProt P53350); experiment: Inhibition of recombinant PLK1 using RBERCHKtide as substrate assessed as inhibition of [33P]Phosphate incorporation into substrate after 80 mins by scintillation counting
[2] = molecular target: RAC-alpha serine/threonine-protein kinase (Homo sapiens, UniProt P31749); experiment: Inhibition of recombinant AKT1 using GSK3 as substrate assessed as inhibition of [33P]Phosphate incorporation into substrate after 80 mins by scintillation counting

In the case of `Cc1ccc(Nc2nccc(-c3nc4ccccc4n3C)n2)cc1`, the IC50 [1] is reported as over 100 µM and the IC50 [2] is reported as over 100 µM.
